The values that follow come from patent US6586425B2, “Cytoskeletal active agents for glaucoma therapy” (Wisconsin Alumni Research Foundation, priority 1996, dated 2003).

In the assay the test system is living monkey eye. As to conditions: living monkeys.

In the case of “1-(5-iodonaphthalene-1-sulfonyl)-1H-Hexahydro-1,4-diazepine”, the “effect on outflow facility” value is “increases outflow facility”.
